# According to publication PMC5907308, “21st Brazilian Diabetes Society Congress” (Diabetology & Metabolic Syndrome, 2018):
# Test system: Gram-positive
# Assay: Antibiogram of tissue fragment cultures of infected diabetic foot ulcers, Gram-positive
# Conditions: 51 cultures of tissue fragment, WHONET 5.6, Graphic 2
smiles,measurement,value
CCC[C@@H]1C[C@@H](C(=O)N[C@@H]([C@H]2O[C@H](SC)[C@H](O)[C@@H](O)[C@H]2O)[C@H](C)Cl)N(C)C1 [Clindamycin],"%R (resistance), Gram-positive",70%
